{"source": "patent US7531500B2", "about": "“Preventing airway mucus production by administration of EGF-R antagonists” (The Regents of the University of California, priority 1998, dated 2009)", "tested_on": "NCI-H292 cells", "assay": "In situ hybridization of EGFR mRNA in NCI-H292 cells", "type": "cell-based, human", "settings": "within 6 hours, increased at 12 hours", "method": "NCI-H292 cells, a human pulmonary mucoepidermoid carcinoma cell line, were grown in RPMI 1640 medium containing 10% fetal bovine serum, penicillin (100 U/ml), streptomycin (100 μg/ml) and Hepes (25 mM) at 37° C. in a humidified 5% CO2 water-jacketed incubator. Either 6-well culture plates or 8-chamber slides were used to culture the cells. When confluent, cells were incubated for 1 hour with cigarette smoke solution. The cells were then washed and incubated with fresh medium alone. Experiments were terminated at preselected times (for mRNA, 6 hours and 12 hours; for protein, 24 hours). As controls, cells were incubated with medium alone for same time periods. In inhibition studies with EGFR tyrosine kinase inhibitors, NCI-H292 cells were pretreated with BIBX1522 (10 μg/ml, generously provided by Boehringer Ingelheim Pharma KG, Ingelheim, Germany) or tyrphostin AG1478 (10 μM, Calbiochem) 30 min before delivering the cigarette smoke solution. The effects of a selective inhibitor of platelet-derived growth factor receptor tyrosine kinase (tyrphostin AG1295, 100 μM, Calbiochem), and a negative control for tyrphostins (tyrphostin A1, 100 μM, Calbiochem) were also examined. The role of reactive oxygen species was examined using a scavenger of oxygen free radicals DMSO (1%, Sigma), or superoxide dismutase (SOD, 300 U/ml, Sigma). […]"}
{"substance": "TNFα: recombinant human tumor necrosis factor alpha (Genzyme)", "values": [{"measurement": "EGFR mRNA expression", "result": "increased"}]}
